Measured values reported in PMC3893112 (Journal of medicinal chemistry, 2013).

Protein sequences, listed by entry. Tags and fused reporters are not part of them. Lines headed by an entry give the natural chain unless they say otherwise; changes in a name come on top.
UniProt P41145: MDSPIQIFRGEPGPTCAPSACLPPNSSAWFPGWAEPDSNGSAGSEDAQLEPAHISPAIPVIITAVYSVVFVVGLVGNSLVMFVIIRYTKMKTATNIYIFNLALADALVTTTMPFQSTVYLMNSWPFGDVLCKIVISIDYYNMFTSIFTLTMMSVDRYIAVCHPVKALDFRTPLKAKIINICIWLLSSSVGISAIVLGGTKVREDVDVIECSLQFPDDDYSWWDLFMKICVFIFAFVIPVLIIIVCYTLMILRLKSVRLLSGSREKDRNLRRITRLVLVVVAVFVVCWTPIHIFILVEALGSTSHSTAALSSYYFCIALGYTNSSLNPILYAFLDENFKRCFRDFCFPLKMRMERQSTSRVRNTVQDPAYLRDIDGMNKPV

What was measured:
[1] = molecular target: human κ opioid receptor over-expressed in CHO cells (Homo sapiens, UniProt P41145); assay: Inhibition of κ agonist-stimulated [35S]GTPγS binding; format: biochemical
[2] = molecular target: human δ opioid receptor over-expressed in CHO cells (Homo sapiens, UniProt P41143); assay: Inhibition of DPDPE-stimulated [35S]GTPγS binding; format: biochemical

C[C@@H]1CN(CCCc2ccccc2)[C@@H]2CCC[C@]1(c1cccc(O)c1)C2.Cl [Compound 4, 3-[(1R,4S,5S)-4-Methyl-2-(3-phenylpropyl)-2-azabicyclo[3.3.1]non-5-yl]phenol] was tested, and the Kb [1] was 12.9 ± 2.5 nM, the “Antagonist κ, U50,488 Ke” value ([1]; vs κ agonist-stimulated [35S]GTPγS binding) was 12.9 nM and the Kb [2] was 32.7 ± 8.9 nM. For the same compound, the “Antagonist δ, DPDPE Ke” value ([2]; vs DPDPE-stimulated [35S]GTPγS binding) was 32.7 nM.
